US11040036B2, “Pyruvate kinase activators for use in treating blood disorders” (Agios Pharmaceuticals, Inc., priority 2017, dated 2021)

Chains of the proteins cited; added tags and fusions are not shown. Lines headed by an entry give the natural chain unless they say otherwise; changes in a name come on top.
UniProt P30613, whole entry: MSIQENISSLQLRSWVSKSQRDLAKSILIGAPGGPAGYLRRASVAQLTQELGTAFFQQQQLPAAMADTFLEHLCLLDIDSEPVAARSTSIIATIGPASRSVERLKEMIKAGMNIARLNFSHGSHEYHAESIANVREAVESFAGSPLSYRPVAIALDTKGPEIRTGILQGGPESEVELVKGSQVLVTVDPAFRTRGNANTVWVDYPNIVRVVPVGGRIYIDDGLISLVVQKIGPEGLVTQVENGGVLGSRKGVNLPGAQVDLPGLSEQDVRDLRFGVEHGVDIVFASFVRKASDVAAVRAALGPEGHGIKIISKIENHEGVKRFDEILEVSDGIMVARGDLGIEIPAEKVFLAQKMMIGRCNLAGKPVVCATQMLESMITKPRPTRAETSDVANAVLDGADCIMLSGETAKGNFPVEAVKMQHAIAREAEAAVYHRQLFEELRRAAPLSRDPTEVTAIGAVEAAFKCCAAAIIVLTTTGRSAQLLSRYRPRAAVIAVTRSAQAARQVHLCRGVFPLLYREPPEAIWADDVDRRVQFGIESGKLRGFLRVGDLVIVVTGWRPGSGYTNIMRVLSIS
UniProt P30613, whole entry K410E: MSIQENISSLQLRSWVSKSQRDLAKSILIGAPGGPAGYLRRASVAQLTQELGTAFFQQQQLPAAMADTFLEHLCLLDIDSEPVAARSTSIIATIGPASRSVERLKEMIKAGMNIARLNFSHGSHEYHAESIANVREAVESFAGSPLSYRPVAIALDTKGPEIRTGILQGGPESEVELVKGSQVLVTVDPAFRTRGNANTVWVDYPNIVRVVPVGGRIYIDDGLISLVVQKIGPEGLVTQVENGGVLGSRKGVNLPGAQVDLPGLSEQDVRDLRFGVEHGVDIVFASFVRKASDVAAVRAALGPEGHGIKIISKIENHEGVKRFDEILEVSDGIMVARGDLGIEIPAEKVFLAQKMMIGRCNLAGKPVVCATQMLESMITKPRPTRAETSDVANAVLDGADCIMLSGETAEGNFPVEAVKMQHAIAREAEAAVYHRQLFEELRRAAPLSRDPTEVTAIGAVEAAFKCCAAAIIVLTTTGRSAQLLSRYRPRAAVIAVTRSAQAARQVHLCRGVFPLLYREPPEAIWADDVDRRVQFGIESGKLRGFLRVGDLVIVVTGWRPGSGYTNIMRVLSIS
UniProt P30613, whole entry R510Q: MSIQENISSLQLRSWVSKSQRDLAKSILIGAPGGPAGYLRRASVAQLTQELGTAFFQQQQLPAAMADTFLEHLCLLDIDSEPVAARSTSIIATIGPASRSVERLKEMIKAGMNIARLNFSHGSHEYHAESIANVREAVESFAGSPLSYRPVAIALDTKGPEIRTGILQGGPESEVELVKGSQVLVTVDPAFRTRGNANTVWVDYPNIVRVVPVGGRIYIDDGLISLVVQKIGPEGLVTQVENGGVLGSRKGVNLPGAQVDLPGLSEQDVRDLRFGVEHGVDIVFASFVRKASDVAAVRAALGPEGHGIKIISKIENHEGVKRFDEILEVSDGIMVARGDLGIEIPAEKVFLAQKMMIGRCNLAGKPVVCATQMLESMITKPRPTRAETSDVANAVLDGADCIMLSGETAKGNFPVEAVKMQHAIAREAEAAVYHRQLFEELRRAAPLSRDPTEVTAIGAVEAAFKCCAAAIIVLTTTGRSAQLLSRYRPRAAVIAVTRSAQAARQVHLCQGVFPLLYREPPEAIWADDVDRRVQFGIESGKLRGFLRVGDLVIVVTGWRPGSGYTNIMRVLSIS

Columns and labels:
[1] = target: T1, wild type PKR (Homo sapiens, UniProt P30613); test: Cell based ATP assay in purified red blood cells; conditions: read-out: Cell based ATP assay AC50; RBCs, overnight at 37° C., ATP levels by Cell-Titer-Glo
Method: Example 16. Red Blood Cell (RBC) Purification
Fresh blood drawn from healthy volunteers into K2EDTA tubes was collected. Whole blood was pelleted by spinning at 500 g for 10 minutes. Cut transfusion bag port off of Purecell leukocyte reduction neofilter (Fisher NCO267633) one (1) inch above filter. Attach a 10 ml syringe barrel to the remaining cut tubing attached to neofilter. The plasma layer was removed from the pellet of the whole blood and the pellet was resuspended in 2× volume of phosphate buffered saline (PBS). Transfer 9 ml re-suspended blood cell pellet to prepared 10 ml syringe that is attached to the neofilter. Allow whole blood to gravity flow through filter until all fluid runs through upper tubing into filter disc. Add plunger to the syringe, remove syringe from clamp and invert the filter, then plunge air through the syringe filter system. Using a new 5 ml syringe, remove filtered RBCs from the bag by the syringe port and transfer purified RBCs to a 5 ml snap cap tube that has been incubated on ice. Spin 5 ml snap cap tube at 500 g for 10 minutes at 15 C, aspirate supernatant and resuspend in AGAM (1×PBS, 1% glucose, 170 mg/L adenine, 5.25 g/L mannitol) at a density of 4×10^9 cells/mL.
Example 17. Cell Based ATP Assay
For cell based ATP assays, the compound as described herein was prepared in 100% DMSO as a 10 mM stock. […] ATP levels were read out using Cell-Titer-Glo (Promega).

[2] = target: PKR K410E (Homo sapiens, UniProt P30613, K410E); test: PKR mutant assay (AC50), PKR K410E; conditions: read-out: PKR K410E AC50; PKR K410E mutant enzyme
Method: (§1) Example 11. PKR Mutant Assay
(§2) PKR or PKR mutant enzyme solution was diluted into a reaction mix, which contains 1× buffer (100 mM KCl, 50 mM Tris pH 7.5, 5 mM MgCl2) as well as PEP (cont depends on enzyme), 180 μM NADH, 0.5 units LDH, 1 mM DTT, 0.03% BSA; final assay concentrations after 1.11 fold dilution are indicated.
(§3) 2 μL of test compound was added into wells first, and then 180 μL reaction mix was added.
(§4) Reactions mixture with test compound was assembled except for ADP, and plates were stored for 60 minutes at room temperature.
(§5) 20 uL ADP was added to start reaction at room temperature and reaction progress was measured as changes in absorbance at 340 nm wavelength at room temperature.
(§6) Test Compound Preparation:
(§7) Test compound stock was made at 100× concentration in 100% DMSO (10 mM)
(§8) 1 to 3 dilutions were made for 11 points (i.e. 50 μl of first concentration added to 100 μl 100% DMSO to yield 3.33 mM, 50 μl of this added to 100 μl DMSO to yield 1.11 mM, and so forth) • 1 to 100 dilution into assay (2 μl in 200 μl) yielded starting concentration of 100 μM, decreasing 3 fold for 11 points.
(§9) Assay Buffer: 100 mM KCl, 50 mM Tris 7.5, 5 mM MgCl2, 1 ruM DTT, 0.03% BSA
(§10) Reaction Mixture: PKR mutant enzyme: 40-400 ng/well; ADP: 0.2-1.65 mM; PEP: 0.1-0.5 mM; NADH:180 μM; LDH: 0.5 units (Sigma #59023); DTT: 1 mM; BSA: 0.03%.

[3] = target: PKR R510Q (Homo sapiens, UniProt P30613, R510Q); test: PKR mutant assay (AC50), PKR R510Q; conditions: read-out: PK R510Q AC50; PKR R510Q mutant enzyme
Method: as §1, §2, §3, §4, §5, §6, §7, §8, §9, §10

[4] = target: T1, wild type PKR; test: PKR mutant assay (AC50), wild type PKR; conditions: read-out: PKR WT AC50; wild type PKR enzyme
Method: as §1, §2, §3, §4, §5, §6, §7, §8, §9, §10

AC50 [1]: < 1000 nM
AC50 [2]: < 300 nM
AC50 [3]: < 300 nM
AC50 [4]: < 300 nM
Compound: CNc1nc(C(F)(F)c2cc[nH]n2)sc1-c1cnn(Cc2cc[nH]n2)c(=O)c1
